1 substance from patent US6794489B2, “Compositions and methods for treatment of sexual dysfunction” (Palatin Technologies, Inc., priority 1999, dated 2004) can be followed below.

By UniProt entry, the sequences of proteins in these tests, tags left out.
UniProt P32245, whole entry: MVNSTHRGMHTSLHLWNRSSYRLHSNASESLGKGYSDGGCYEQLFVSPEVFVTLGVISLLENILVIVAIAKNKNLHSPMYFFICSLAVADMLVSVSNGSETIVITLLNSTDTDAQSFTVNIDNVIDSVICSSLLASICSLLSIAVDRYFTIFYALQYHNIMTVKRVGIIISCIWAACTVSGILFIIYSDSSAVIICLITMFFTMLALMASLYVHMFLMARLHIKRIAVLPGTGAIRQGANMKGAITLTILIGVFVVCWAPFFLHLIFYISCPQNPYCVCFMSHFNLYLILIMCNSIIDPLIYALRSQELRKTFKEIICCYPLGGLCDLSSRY

The target in this test is MC4-R (Homo sapiens, UniProt P32245). The test can be described thus: Agonist activity by cAMP detection in HEK 293 cells. It counts as cell-based. The arrangement: expressed in transfected cells; host or cells: HEK 293 cells, stably transfected.

Take α-MSH: the “cAMP CONCENTRATION” value by setting is: (test compound 3.91 × 10^−10M) 20.2 pmol/mL; (test compound 6.25 × 10^−9M) 45.0 pmol/mL; (test compound […] 10^−8M) 146.3 pmol/mL; (test compound […] 10^−10M) 40.0 pmol/mL.
